# Data published in patent publication US5441932A, “Sugar compounds for inhibition of the biosynthesis of sugar chains containing sialic acid” (priority 1992, dated 1995).
# Assay: Solubility (physical properties)
# Assay type: physicochemical
# Conditions: qualitative, in words
substance,measurement,value
6-deoxy-D-galactose-monophosphoric acid,Solubility,"Soluble in water, alkaline solutions, acid solutions, and various buffer solutions. Hardly soluble in organic solvents."
